Tests used:
[1] = target: human neutrophil elastase (immobilized on Reacti-Gel agarose beads, or free) (human) (UniProt P08246); test: HNE beads, pH 4.5 wash
[2] = target: human neutrophil elastase (immobilized on Reacti-Gel agarose beads, or free) (human) (UniProt P08246); test: HNE beads, pH 6.0 wash
[3] = target: human neutrophil elastase (immobilized on Reacti-Gel agarose beads, or free) (human) (UniProt P08246); test: HNE beads, pH 5.0 wash
[4] = target: human neutrophil elastase (immobilized on Reacti-Gel agarose beads, or free) (human) (UniProt P08246); test: HNE beads, pH 3.5 wash
[5] = target: human neutrophil elastase (immobilized on Reacti-Gel agarose beads, or free) (human) (UniProt P08246); test: HNE beads, pH 3.0 wash
[6] = target: human neutrophil elastase (immobilized on Reacti-Gel agarose beads, or free) (human) (UniProt P08246); test: HNE beads, pH 3.75 wash
[7] = target: human neutrophil elastase (immobilized on Reacti-Gel agarose beads, or free) (human) (UniProt P08246); test: HNE beads, pH 7.0 wash
[8] = target: human neutrophil elastase (immobilized on Reacti-Gel agarose beads, or free) (human) (UniProt P08246); test: HNE beads, pH 4.0 wash
[9] = target: human neutrophil elastase (immobilized on Reacti-Gel agarose beads, or free) (human) (UniProt P08246); test: HNE beads, pH 4.75 wash
[10] = target: human neutrophil elastase (immobilized on Reacti-Gel agarose beads, or free) (human) (UniProt P08246); test: acid-eluted from HNE beads
[11] = target: human neutrophil elastase (immobilized on Reacti-Gel agarose beads, or free) (human) (UniProt P08246); test: HNE beads, pH 5.5 wash
[12] = target: human neutrophil elastase (immobilized on Reacti-Gel agarose beads, or free) (human) (UniProt P08246); test: phage mixture on HNE beads, pH 6.0 wash
[13] = target: trypsin (active, immobilized on beads, or in solution) (UniProt P00760); test: acid-eluted from trypsin beads
[14] = target: human neutrophil elastase (immobilized on Reacti-Gel agarose beads, or free) (human) (UniProt P08246); test: HNE beads, pH 4.0 wash; remark: listed apart in the source
[15] = target: human neutrophil elastase (immobilized on Reacti-Gel agarose beads, or free) (human) (UniProt P08246); test: phage mixture on HNE beads, pH 5.0 wash
[16] = target: human neutrophil elastase (immobilized on Reacti-Gel agarose beads, or free) (human) (UniProt P08246); test: HNE beads
[17] = target: human neutrophil elastase (immobilized on Reacti-Gel agarose beads, or free) (human) (UniProt P08246); test: HNE beads, pH 4.25 wash
[18] = target: human neutrophil elastase (immobilized on Reacti-Gel agarose beads, or free) (human) (UniProt P08246); test: HNE beads, pH 7.0 wash; remark: listed apart in the source
[19] = target: human neutrophil elastase (immobilized on Reacti-Gel agarose beads, or free) (human) (UniProt P08246); test: HNE beads, pH 5.0 wash; remark: listed apart in the source
[20] = target: human neutrophil elastase (immobilized on Reacti-Gel agarose beads, or free) (human) (UniProt P08246); test: phage mixture on HNE beads, pH 4.0 wash
[21] = target: human neutrophil elastase (immobilized on Reacti-Gel agarose beads, or free) (human) (UniProt P08246); test: mixture of two phage on HNE beads, pH 4.0 fraction
[22] = target: human neutrophil elastase (immobilized on Reacti-Gel agarose beads, or free) (human) (UniProt P08246); test: HNE beads, pH 6.0 wash; remark: listed apart in the source
[23] = target: human neutrophil elastase (immobilized on Reacti-Gel agarose beads, or free) (human) (UniProt P08246); test: phage mixture on HNE beads, pH 7.0 wash
[24] = target: trypsin (active, immobilized on beads, or in solution) (UniProt P00760); test: trypsin beads
[25] = target: anhydro-trypsin (agarose-immobilized) (UniProt P00760); test: anhydrotrypsin beads
[26] = target: anhydro-trypsin (agarose-immobilized) (UniProt P00760); test: eluted from anhydrotrypsin beads
[27] = target: trypsin (active, immobilized on beads, or in solution) (UniProt P00760); test: eluted from trypsin beads
[28] = target: human neutrophil elastase (immobilized on Reacti-Gel agarose beads, or free) (human) (UniProt P08246); test: HNE beads, pH 2.2 elution
[29] = target: human neutrophil elastase (immobilized on Reacti-Gel agarose beads, or free) (human) (UniProt P08246); test: HNE beads, pH 2.2 wash
[30] = target: human neutrophil elastase (immobilized on Reacti-Gel agarose beads, or free) (human) (UniProt P08246); test: pH 2.2 elution from beads
[31] = target: trypsin (active, immobilized on beads, or in solution) (UniProt P00760); test: trypsin beads, pH 2.2 elution

BPTI(K15V,R17L)-III MA phage (designed binder)
% of input phage [1]: 0.355% | total pfu recovered [1]: 1.39e+07 pfu | % of input phage [2]: 0.138% | total pfu recovered [2]: 5.42e+06 pfu | % of input phage [3]: 0.241% | total pfu recovered [3]: 9.45e+06 pfu | % of input phage [4]: 0.106% | total pfu recovered [4]: 4.16e+06 pfu | % of input phage [5]: 0.068% | total pfu recovered [5]: 2.65e+06 pfu | % of input phage [6]: 0.235% | total pfu recovered [6]: 9.2e+06 pfu | % of input phage [7]: 0.081% | total pfu recovered [7]: 3.19e+06 pfu | % of input phage [8]: 0.515% | total pfu recovered [8]: 2.02e+07 pfu

BPTI(K15L,MGNG)-III MA phage (designed binder)
% of input [9]: 0.46% | total pfu in fraction [9]: 1.3e+06 pfu | % of input [1]: 0.13% | % of input phage [1]: 0.211% | total pfu in fraction [1]: 360000 pfu | total pfu recovered [1]: 432000 pfu | eluted phage, % of input [10]: 4.1% | % of input [11]: 0.264% | total pfu in fraction [11]: 730000 pfu | % of input phage [2]: 0.079% | total pfu recovered [2]: 161000 pfu | % of input phage [3]: 0.139% | total pfu recovered [3]: 285000 pfu | % of input [12]: 0.162% | total ampicillin transducing units (transducing units) [12]: 71800 | eluted phage, % of input [13]: 0.001% | % of input [4]: 0.014% | % of input phage [4]: 0.026% | total pfu in fraction [4]: 38000 pfu | total pfu recovered [4]: 52900 pfu | % of input [14]: 0.048% | total pfu in fraction [14]: 130000 pfu | % of input [15]: 0.304% | total ampicillin transducing units (transducing units) [15]: 135000 | relative binding (to M13MP18) [16]: 14000 fold | % of input [17]: 0.18% | total pfu in fraction [17]: 500000 pfu | % of input [18]: 0.163% | total pfu in fraction [18]: 450000 pfu | % of input [19]: 0.316% | total pfu in fraction [19]: 870000 pfu | % of input [20]: 1.67% | total ampicillin transducing units (transducing units) [20]: 743000 | fold enrichment over BPTI-III MK phage [21]: 984 fold | % of input phage [7]: 0.046% | total pfu recovered [7]: 94200 pfu | % of input [22]: 0.227% | total pfu in fraction [22]: 630000 pfu | % of input [23]: 0.313% | total ampicillin transducing units (transducing units) [23]: 139000 | relative binding (to M13MP18) [24]: 2 fold | % of input phage [8]: 0.069% | total pfu recovered [8]: 142000 pfu

M13.3X7 phage (BPTI:VIII fusion with one EGGGS linker)
relative binding (to M13MP18) [25]: 250 fold | eluted phage, % of input [13]: 1.15% | relative binding (to M13MP18) [16]: 3.3 fold | eluted phage, % of input [26]: 25% | eluted phage, % of input [27]: 1.4% | relative binding (to M13MP18) [24]: 2300 fold

BPTI(K15L)-III MA phage (designed binder)
% of input [9]: 0.276% | total pfu in fraction [9]: 990000 pfu | % of input [1]: 0.085% | total pfu in fraction [1]: 310000 pfu | % of input [11]: 0.146% | total pfu in fraction [11]: 530000 pfu | % of input phage [2]: 0.086% | total pfu in fraction [2]: 450000 pfu | % of input phage [3]: 0.4% | total pfu in fraction [3]: 2.1e+06 pfu | % of input [4]: 0.004% | total pfu in fraction [4]: 13000 pfu | % of input [14]: 0.014% | total pfu in fraction [14]: 51000 pfu | % of input phage recovered [28]: 0.1% | total pfu in elution fraction [28]: 1e+06 pfu | % of input [17]: 0.142% | total pfu in fraction [17]: 520000 pfu | % of input phage [5]: 0.21% | total pfu in fraction [5]: 1.1e+06 pfu | % of input [18]: 0.082% | total pfu in fraction [18]: 300000 pfu | % of input [19]: 0.152% | total pfu in fraction [19]: 560000 pfu | % of input phage [7]: 0.032% | total pfu in fraction [7]: 170000 pfu | % of input [22]: 0.1% | total pfu in fraction [22]: 360000 pfu | % of input phage [29]: 0.011% | total pfu in fraction [29]: 59000 pfu | ratio of phage bound to HNE beads over trypsin beads [30]: 36 fold | % of input phage recovered [31]: 0.005% | total pfu in elution fraction [31]: 52000 pfu | % of input phage [8]: 0.82% | total pfu in fraction [8]: 4.3e+06 pfu

Reference: US7118879
